Results from US7759499B2, “Compounds as inhibitors of hepatitis C virus NS3 serine protease” (Schering Corporation, priority 2004, dated 2010).

Protein sequences, listed by entry. Tags and fused reporters are not part of them. Residues count along the entry.
UniProt P27958, 1027-1657: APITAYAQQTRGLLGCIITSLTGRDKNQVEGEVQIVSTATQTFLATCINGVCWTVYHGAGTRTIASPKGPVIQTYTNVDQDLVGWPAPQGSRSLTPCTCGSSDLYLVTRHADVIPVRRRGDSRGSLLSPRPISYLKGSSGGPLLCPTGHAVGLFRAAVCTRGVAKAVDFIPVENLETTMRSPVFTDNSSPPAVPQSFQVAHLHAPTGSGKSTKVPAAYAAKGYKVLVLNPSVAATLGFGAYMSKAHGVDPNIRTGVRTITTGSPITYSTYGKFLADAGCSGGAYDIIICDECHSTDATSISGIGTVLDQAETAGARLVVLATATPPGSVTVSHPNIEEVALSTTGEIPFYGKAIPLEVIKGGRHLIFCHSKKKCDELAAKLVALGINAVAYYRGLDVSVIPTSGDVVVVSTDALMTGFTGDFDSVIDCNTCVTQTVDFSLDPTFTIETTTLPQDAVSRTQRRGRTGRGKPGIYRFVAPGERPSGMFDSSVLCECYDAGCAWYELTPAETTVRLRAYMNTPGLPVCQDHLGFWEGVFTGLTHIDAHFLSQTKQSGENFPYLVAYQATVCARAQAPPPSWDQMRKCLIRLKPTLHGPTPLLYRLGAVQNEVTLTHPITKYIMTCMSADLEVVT
UniProt P27958, 1658-1711: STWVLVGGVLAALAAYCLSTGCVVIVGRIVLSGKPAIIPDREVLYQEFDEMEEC

Each molecule was assayed against Recombinant heterodimeric HCV NS3/NS4A protease (strain 1a) (Hepatitis C virus genotype 1a, UniProt P27958) (assay: Spectrophotometric assay for HCV protease inhibitory activity). Settings: Table 1, range.
Format: biochemical
Molecule `C=CCNC(=O)C(=O)C(CCC)NC(=O)[C@@H]1[C@@H]2[C@H](CN1C(=O)[C@@H](NC(=O)N[C@H](CNS(=O)(=O)N(C)C)C(C)C)C1CCCCC1)C2(C)C` (stereo partly shown) [Compound 10035] has a Ki of 75 to 250 nM.
`C=CCNC(=O)C(=O)C(CCC)NC(=O)[C@@H]1[C@@H]2[C@H](CN1C(=O)[C@@H](NC(=O)N[C@H](CNS(=O)(=O)N(C)C)C(C)(C)C)C(C)(C)C)C2(C)C` (stereo partly shown) [Compound 10036] was tested, and the Ki was ≤ 75 nM.
`C=CCNC(=O)C(=O)C(CCC(F)(F)F)NC(=O)[C@@H]1[C@@H]2[C@H](CN1C(=O)[C@@H](NC(=O)N[C@H](CNS(=O)(=O)N(C)C)C(C)(C)C)C(C)(C)C)C2(C)C` (stereo partly shown) [Compound 10037] was tested, and the Ki was ≤ 75 nM.
`CN(C)S(=O)(=O)NC[C@@H](NC(=O)N[C@H](C(=O)N1C[C@H]2[C@@H]([C@H]1C(=O)NC(CC1CC1)C(=O)C(N)=O)C2(C)C)C(C)(C)C)C(C)(C)C` (stereo partly shown) [Compound 10038] was tested, and the Ki was ≤ 75 nM.
In the case of `CNC(=O)C(=O)[C@@H](CC1CC1)NC(=O)[C@@H]1[C@@H]2[C@H](CN1C(=O)[C@@H](NC(=O)N[C@H](CN(C)S(=O)(=O)N(C)C)C(C)(C)C)C(C)(C)C)C2(C)C` [Compound 10039], the Ki is reported as ≤ 75 nM.
For `CC(C)(C)[C@H](NC(=O)N[C@H](CNS(=O)(=O)NCCCCl)C(C)(C)C)C(=O)N1C[C@H]2[C@@H]([C@H]1C(=O)NC(CC1CC1)C(=O)C(N)=O)C2(C)C` (stereo partly shown) [Compound 10040], the Ki was ≤ 75 nM.
In the case of `C=CCNC(=O)C(=O)C(CCC)NC(=O)[C@@H]1[C@@H]2[C@H](CN1C(=O)[C@@H](NC(=O)N[C@H](CNS(=O)(=O)NCCCCl)C(C)(C)C)C(C)(C)C)C2(C)C` (stereo partly shown) [Compound 10041], the Ki is reported as ≤ 75 nM.
With `C=CCNC(=O)C(=O)C(CCC)NC(=O)[C@@H]1[C@@H]2[C@H](CN1C(=O)[C@@H](NC(=O)N[C@H](CN(C)S(=O)(=O)N(C)C)C1CCCCC1)C(C)(C)C)C2(C)C` (stereo partly shown) [Compound 10043] the Ki was ≤ 75 nM.
With `C=CCNC(=O)C(=O)C(CCC)NC(=O)[C@@H]1[C@@H]2[C@H](CN1C(=O)[C@@H](NC(=O)N[C@H](CN(C)S(=O)(=O)N1CCCC1)C(C)(C)C)C1CCCCC1)C2(C)C` (stereo partly shown) [Compound 10044] the Ki was ≤ 75 nM.
For `C#CCCC(NC(=O)[C@@H]1[C@@H]2[C@H](CN1C(=O)[C@@H](NC(=O)N[C@H](CN(C)S(=O)(=O)N1CCCCC1)C(C)(C)C)C(C)(C)C)C2(C)C)C(=O)C(N)=O` (stereo partly shown) [Compound 10045], the Ki was ≤ 75 nM.
In the case of `CNC(=O)C(=O)C(CC1CC1)NC(=O)[C@@H]1[C@@H]2[C@H](CN1C(=O)[C@@H](NC(=O)N[C@H](CN(C)S(=O)(=O)N(C)C(=O)OCc1ccccc1)C(C)(C)C)C(C)(C)C)C2(C)C` (stereo partly shown) [Compound 10047], the Ki is reported as ≤ 75 nM.
In the case of `C#CCCC(NC(=O)[C@@H]1[C@@H]2[C@H](CN1C(=O)[C@@H](NC(=O)N[C@H](CN(C)S(=O)(=O)N1CCCCC1)C(C)(C)C)C(C)(C)C)C2(C)C)C(=O)C(=O)NCC=C` (stereo partly shown) [Compound 10048], the Ki is reported as ≤ 75 nM.
With `CN(C[C@@H](NC(=O)N[C@H](C(=O)N1C[C@H]2[C@@H]([C@H]1C(=O)NC(CC1CC1)C(=O)C(N)=O)C2(C)C)C(C)(C)C)C(C)(C)C)S(=O)(=O)N1CCC1` (stereo partly shown) [Compound 10049] the Ki was ≤ 75 nM.
In the case of `C=CCNC(=O)C(=O)C(CCC)NC(=O)[C@@H]1[C@@H]2[C@H](CN1C(=O)[C@@H](NC(=O)N[C@H](CN(C)S(=O)(=O)N1CCC1)C(C)(C)C)C(C)(C)C)C2(C)C` (stereo partly shown) [Compound 10050], the Ki is reported as ≤ 75 nM.
With `C#CCCC(NC(=O)[C@@H]1[C@@H]2[C@H](CN1C(=O)[C@@H](NC(=O)N[C@H](CN(C)S(=O)(=O)N1CCC1)C(C)(C)C)C(C)(C)C)C2(C)C)C(=O)C(=O)NCC=C` (stereo partly shown) [Compound 10051] the Ki was ≤ 75 nM.
`C=CCNC(=O)C(=O)C(CCCC)NC(=O)[C@@H]1[C@@H]2[C@H](CN1C(=O)[C@@H](NC(=O)N[C@H](CN(C)S(=O)(=O)N1CCC1)C(C)(C)C)C(C)(C)C)C2(C)C` (stereo partly shown) [Compound 10052] was tested, and the Ki was ≤ 75 nM.
With `CN(C[C@@H](NC(=O)N[C@H](C(=O)N1C[C@H]2[C@@H]([C@H]1C(=O)NC(CC1CCC1)C(=O)C(N)=O)C2(C)C)C1CCCCC1)C(C)(C)C)S(=O)(=O)N1CCCCC1` (stereo partly shown) [Compound 10053] the Ki was ≤ 75 nM.
In the case of `C=CCNC(=O)C(=O)C(CC1CCC1)NC(=O)[C@@H]1[C@@H]2[C@H](CN1C(=O)[C@@H](NC(=O)N[C@H](CN(C)S(=O)(=O)N(C)C(=O)OCc1ccccc1)C(C)(C)C)C(C)(C)C)C2(C)C` (stereo partly shown) [Compound 10054], the Ki is reported as ≤ 75 nM.
`C=CCNC(=O)C(=O)C(CCC)NC(=O)[C@@H]1[C@@H]2[C@H](CN1C(=O)[C@@H](NC(=O)N[C@H](CN(C)S(=O)(=O)N(C)C)C(C)(C)C)C1Cc3ccccc3C1)C2(C)C` (stereo partly shown) [Compound 10055] was tested, and the Ki was ≤ 75 nM.
`C=CCNC(=O)C(=O)C(CC1CCC1)NC(=O)[C@@H]1[C@@H]2[C@H](CN1C(=O)[C@@H](NC(=O)N[C@H](CN(C)S(=O)(=O)N(C)C)C(C)(C)C)C1CCCCC1)C2(C)C` (stereo partly shown) [Compound 10056] was tested, and the Ki was ≤ 75 nM.
For `CCCCC(NC(=O)[C@@H]1[C@@H]2[C@H](CN1C(=O)[C@@H](NC(=O)N[C@H](CN(C)S(=O)(=O)N(C)C)C(C)(C)C)C1Cc3ccccc3C1)C2(C)C)C(=O)C(=O)NCC` (stereo partly shown) [Compound 10057], the Ki was ≤ 75 nM.
With `C=CCNC(=O)C(=O)C(CCCC)NC(=O)[C@@H]1[C@@H]2[C@H](CN1C(=O)[C@@H](NC(=O)N[C@H](CN(C)S(=O)(=O)N(C)C)C(C)(C)C)C1Cc3ccccc3C1)C2(C)C` (stereo partly shown) [Compound 10058] the Ki was ≤ 75 nM.
`C=CCNC(=O)C(=O)C(CCCC)NC(=O)[C@@H]1[C@@H]2[C@H](CN1C(=O)[C@@H](NC(=O)N[C@H](CN(C)S(=O)(=O)N(C)C)C(C)(C)C)C1(C)CCCCC1)C2(C)C` (stereo partly shown) [Compound 10059] was tested, and the Ki was ≤ 75 nM.
For `C=CCNC(=O)C(=O)C(CCC)NC(=O)[C@@H]1[C@@H]2[C@H](CN1C(=O)[C@@H](NC(=O)N[C@H](CN(C)S(=O)(=O)N(C)C)C(C)(C)C)C1(C)CCCCC1)C2(C)C` (stereo partly shown) [Compound 10060], the Ki was ≤ 75 nM.
`CN(C[C@@H](NC(=O)N[C@H](C(=O)N1C[C@H]2[C@@H]([C@H]1C(=O)NC(CC1CCC1)C(=O)C(N)=O)C2(C)C)C(C)(C)C)C(C)(C)C)S(=O)(=O)N1CCCCC1` (stereo partly shown) [Compound 10061] was tested, and the Ki was ≤ 75 nM.
`CCNC(=O)C(=O)C(CC1CC1)NC(=O)[C@@H]1[C@@H]2[C@H](CN1C(=O)[C@@H](NC(=O)N[C@H](CN(C)S(=O)(=O)N1CCCCC1)C(C)(C)C)C(C)(C)C)C2(C)C` (stereo partly shown) [Compound 10062] was tested, and the Ki was ≤ 75 nM.
`C=CCNC(=O)C(=O)C(CC1CC1)NC(=O)[C@@H]1[C@@H]2[C@H](CN1C(=O)[C@@H](NC(=O)N[C@H](CN(C)S(=O)(=O)N(C)C(=O)OCc1ccccc1)C(C)(C)C)C(C)(C)C)C2(C)C` (stereo partly shown) [Compound 10063] was tested, and the Ki was ≤ 75 nM.
`C=CCNC(=O)C(=O)C(CCCC)NC(=O)[C@@H]1[C@@H]2[C@H](CN1C(=O)[C@@H](NC(=O)N[C@H](CN(C)S(=O)(=O)N(C)C)C1CCCCC1)C(C)(C)C)C2(C)C` (stereo partly shown) [Compound 10064] was tested, and the Ki was ≤ 75 nM.
In the case of `C=CCNC(=O)C(=O)C(CCCC)NC(=O)[C@@H]1[C@@H]2[C@H](CN1C(=O)[C@@H](NC(=O)N[C@H](CN(C)S(=O)(=O)N(C)C)C(C)C)C(C)(C)C)C2(C)C` (stereo partly shown) [Compound 10065], the Ki is reported as ≤ 75 nM.
With `C=CCNC(=O)C(=O)C(CC1CC1)NC(=O)[C@@H]1[C@@H]2[C@H](CN1C(=O)[C@@H](NC(=O)N[C@H](CN(C)S(=O)(=O)N(C)C)C(C)C)C(C)(C)C)C2(C)C` (stereo partly shown) [Compound 10066] the Ki was ≤ 75 nM.
For `C=CCNC(=O)C(=O)C(CC1CC1)NC(=O)[C@@H]1[C@@H]2[C@H](CN1C(=O)[C@@H](NC(=O)N[C@H](CN(C)S(=O)(=O)N(C)C)C1CCCCC1)C(C)(C)C)C2(C)C` (stereo partly shown) [Compound 10067], the Ki was ≤ 75 nM.
